# In the library only some 16% were active in any assay of this set; here they are far more common.
# TDP1 cell noCPT = qHTS for Inhibitors of human tyrosyl-DNA phosphodiesterase 1 (TDP1): qHTS in cells in absence of CPT. DT40 Tdp1-/- hTDP1 cells, no CPT, ATP luminescence, 48 h. Potency, µM (highest dose often 46.2 µM), usual class: inhibitors. 420,000 compounds, 15% hits; further: nearly all actives have a fitted effect of over 55% in size
#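 A cellular qHTS used chicken DT40 cells lacking endogenous Tdp1 but carrying stably transfected human TDP1. Compounds were applied without camptothecin, and cell growth kinetics were judged by ATP-dependent luminescence after ≥48 hr.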
# miR-21 FLuc = miR-21 reporter, rising signal | 340,000 tested, under 10 active | AID 2288 | HeLa miR-21 FLuc reporter, luciferase, 48 h | Potency, µM (titrated, usually from 38.3 µM); active = well fitted rising curve with a large enough effect; inconclusive = small, poorly fitted or top-dose-only effect; inactive = no such curve, though single readings can be large or run the other way;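 further: miR-21 action dims this reporter so a rising signal means less miR-21 action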
#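 Using DMEM plus 10% FBS, HeLa miR-21-FLuc cells are incubated with test compounds (final up to about 40uM) for 48 hours; firefly luciferase signal is then imaged following reagent-mediated lysis.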
# DT40 TDP1 CPT = growth inhibition of DT40 Tdp1-/-;hTDP1 cells with camptothecin (screen for TDP1 inhibitors) | chicken DT40 Tdp1-/-;hTDP1 cells + 20 nM CPT, ATP luminescence, 48 h | AID 686979 | Potency, µM (titrated, usually from 46.2 µM), most hits filed as inhibitors | 420,000 compounds, 12% hits; further: nearly all actives have a fitted effect of over 55% in size
#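 Chicken DT40 Tdp1-/- cells complemented with human TDP1, 400 cells/well, exposed to compounds plus 20 nM camptothecin for at least 48 h at 37 C; viability read as ATP content by CellTiter-Glo luminescence.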
# TDP1 block = blocks human tyrosyl-DNA phosphodiesterase 1 | Q9NUW8 | recombinant TDP1, AlphaScreen DNA substrate cleavage | Potency, µM (top dose mostly 130 µM), hits mostly inhibitors | 350,000 compounds, 0.28% hits; further: nearly all actives have a fitted effect of over 40% in size
#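 Recombinant E. coli-expressed Tdp1 (1 nM) preincubated with compound 15 min at RT, then 5'-biotin/3'-phosphotyrosine-FITC DNA substrate (15 nM) added for 5 min. AlphaScreen beads (10 ug/ml) added, 10 min RT; tyrosine-FITC cleavage read as signal loss.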
# uPA surface inh = blocks generation of uPA at the cell surface | AID 540303 | cell surface uPA generation assay, qHTS | 330,000 compounds, 0.31% hits | Potency, µM (highest dose often 38.3 µM), hits mostly inhibitors; active means well fitted inhibition curve with a large enough effect; inconclusive means small, poorly fitted or top-dose-only effect; inactive means no such curve, though single readings can be large or run the other way; tested in mouse RAW 264.7 cells; further: nearly all actives have a fitted effect of over 55% in size
# A number is an active result; . = inactive; ? = inconclusive; / = no result; ! = repeats disagree. Unless noted, the call rests on the fitted dose curve; in most records, active means well fitted curve in the direction sought with a large enough effect; inconclusive means small, poorly fitted or top-dose-only effect, or another doubt; inactive means no such curve, though single readings can be large; an effect the other way counts as inactive or inconclusive.
SMILES,TDP1 cell noCPT,miR-21 FLuc,DT40 TDP1 CPT,TDP1 block,uPA surface inh
COC(=O)C1=C(c2ccc(OCc3ccccc3)cc2)C[C@@H]2CC[C@H]1N2C(=O)NCc1cccc(OC)c1,20.6µM,/,18.4µM,.,?
COC(=O)C1=C(c2cccc(OCc3ccccc3)c2)C[C@@H]2CC[C@H]1N2C(=O)NCc1ccc(OC)cc1,16.4µM,/,11.6µM,.,?
COc1ccc(NC(c2ccccc2)P(=O)(Oc2ccccc2)Oc2ccccc2)cc1 (stereo unspecified),.,.,.,.,.
CC1=C2C[C@H]3[C@@H](CC=C4C[C@@H](O)CC[C@@]43C)[C@@H]2CC[C@]12O[C@@H]1C[C@H](C)CN[C@H]1C2C (stereo partly specified),/,/,/,.,/
CCN(CC)N=O,.,/,.,.,.
COC(=O)C1=C(c2cccc(OCc3ccccc3)c2)C[C@@H]2CC[C@H]1N2C(=O)NCc1cc(C)oc1C(F)(F)F,?,/,23.1µM,.,.
Cc1nc(C)c(C(=O)NN=Cc2ccc(N(CCCl)CCCl)cc2)s1,11.6µM,/,?,/,.
O=C(NN=Cc1ccc(N(CCCl)CCCl)cc1)c1cccc([N+](=O)[O-])c1,?,/,?,/,.
O=C(NN=Cc1ccc(N(CCCl)CCCl)cc1)c1cccnc1,9.2µM,/,7.31µM,/,.
N#Cc1c(Cl)cccc1Cl,.,/,.,.,/
CCCCN1C(=O)NC(=O)C2(Cc3c(nc4ccccn4c3=O)N3CCc4ccccc4C32)C1=O (stereo unspecified),.,.,.,.,.
CCCCN1C(=O)NC(=O)C2(Cc3c(nc4c(C)cccn4c3=O)N3CCc4ccccc4C32)C1=O (stereo unspecified),16.4µM,.,20.6µM,.,.
ClCCN(CCCl)c1ccc(C=Nc2ccc(/C=C/c3ccncc3)cc2)cc1,12.6µM,/,12.6µM,/,/
ClCCN(CCCl)c1ccc(C=Nc2ccncc2)cc1,11.2µM,/,?,/,/
CC(C)(C)OC(=O)c1ncn2c1[C@@H]1CCCN1C(=O)c1c(Br)cccc1-2,?,/,.,.,/
CN(C)C1C(=O)C(C(N)=O)=C(O)[C@@]2(O)C(=O)C3=C(O)c4c(O)cccc4[C@@](C)(O)C3CC12 (stereo partly specified),?,/,?,.,/
CC(C)(C)n1nnnc1C(CCc1ccccc1)N1CCC2(CC1)C(=O)NCN2c1ccccc1 (stereo unspecified),14.6µM,/,20.6µM,/,/
O=C1NCN(c2ccccc2)C12CCN(C(c1nnnn1Cc1ccccc1)C1CC1)CC2 (stereo unspecified),20.6µM,/,?,/,/
CSCCC(c1nnnn1Cc1ccccc1)N1CCC2(CC1)C(=O)NCN2c1ccccc1 (stereo unspecified),20.6µM,/,14.6µM,/,/
O=C1NCN(c2ccccc2)C12CCN(CC1COc3ccccc3O1)CC2 (stereo unspecified),.,/,.,.,/
CSCCC(c1nnnn1-c1c(C)cccc1C)N1CCC2(CC1)C(=O)NCN2c1ccccc1 (stereo unspecified),?,/,23.1µM,/,/
O=C(Nc1nnc(-c2ccco2)o1)c1cccc2ccccc12,?,.,?,.,.
NC1CCC(CC2CCC(N)CC2)CC1 (stereo unspecified),/,/,/,.,/
CC(C)c1ccc(OCC(=O)N2CCN(CCc3ccccn3)CC2)cc1,?,.,.,.,/
COC(=O)c1ccc(NC(=O)CSc2nc3ccc(N4C(=O)C5C6C=CC(C6)C5C4=O)cc3s2)cc1 (stereo unspecified),18.4µM,?,20.6µM,.,.
SMILES,TDP1 cell noCPT,miR-21 FLuc,DT40 TDP1 CPT,TDP1 block,uPA surface inh
Cc1ccc(Cl)cc1N1CCN(CCN)CC1,?,.,16.4µM,.,.
CCn1nc(-c2ccccc2)nc2c(=O)n(C)c(=O)nc1-2,2.59µM,?,1.3µM,.,.
C=CCC1(Cc2ccsc2)C(=O)NC(=O)NC1=O,.,/,.,/,.
O=[N+]([O-])c1nccn1CC(O)CN1CC1 (stereo unspecified),10.3µM,/,11.6µM,/,/
COc1ccc(C2SCC(=O)Nc3c2c(C)nn3C2CCOC(C)(C)C2)cc1OC (stereo unspecified),.,.,.,.,/
O/N=C/c1c[nH]c2ccccc12,.,.,.,.,.
NC(=Nc1ccccc1)NN=Cc1c[nH]c2ccccc12,0.92µM,/,1.03µM,/,.
Cc1cc(S(=O)(=O)NC(C)C)ccc1OCC(=O)N1CCN(Cc2ccc3c(c2)OCO3)CC1,?,.,16.4µM,.,.
CC(C)NS(=O)(=O)c1ccc(OCC(=O)N2CCN(Cc3ccc4c(c3)OCO4)CC2)c(Cl)c1,18.4µM,.,16.4µM,.,/
COc1cc(-c2nc3ccc(Cl)cn3c2Nc2ccc3c(c2)OCCO3)ccc1O,?,.,?,.,/
Cc1nc2c(C(=O)N3CCC4(CC3)OCCO4)cnn2c(C)c1Cc1cccc(Cl)c1,?,.,?,.,.
CCCNC(=O)c1cnn2c(C)c(Cc3c(C)cc(C)cc3C)c(C)nc12,1.84µM,.,3.66µM,.,/
CCOP(=O)(NC(C)C)Oc1ccc(SC)c(C)c1 (stereo unspecified),21.7µM!,/,21.7µM,.,.
CCOP(=O)(OCC)C(O)c1ccc(N(C)C)cc1 (stereo unspecified),.,.,.,.,.
CC(C)(C)c1ccc(/C=C2\Oc3cc(OC(=O)N4CCOCC4)ccc3C2=O)cc1,25.9µM,.,16.4µM,.,.
O=c1[nH]c(O)c(/C=C2/C=CC(c3cc(Cl)ccc3Cl)=N2)c(=O)[nH]1,6.51µM,.,5.8µM,.,.
CCOC(=O)C1=C(C)OC(N)=C(C(=O)OCC)C12C(=O)Nc1ccc(Br)cc12 (stereo unspecified),?,.,?,.,.
CCOP(=O)(OCC)C1(O)C(=O)Nc2ccc(Br)cc21 (stereo unspecified),16.4µM,.,?,.,.
O=C(Nc1ccccc1)N1CC[C@@]2(CCCN(C(=O)Oc3ccccc3)C2)C1,.,/,.,/,/
O=C1NC(=O)N(c2ccc(Cl)cc2)C(=O)/C1=C\c1ccc(Sc2nc3ccccc3[nH]2)o1,?,.,16.4µM,.,.
CC(C)Cc1nc(N2CCNCC2)c(C#N)c2c1CCC2,18.4µM,.,?,?,.
CCc1nc(N2CCNCC2)c(C#N)c2c1CSC(C)(C)C2,?,.,?,.,.
O=C1/C(=C/c2cc([N+](=O)[O-])ccc2Cl)N2CCC1CC2,16.4µM,.,18.4µM,.,.
Cc1c(C)c2cc(Cl)c(OCC(=O)N3C[C@H]4C[C@@H](C3)c3cccc(=O)n3C4)cc2oc1=O,.,.,.,/,.
COc1ccc2c(C(=O)c3ccc(Cl)cc3)c(C)n(CC(=O)O)c2c1,.,/,.,/,/
Cc1cc2oc(=O)cc(-c3ccccc3)c2c(C)c1-c1ccc(CO)cc1,18.4µM,/,18.4µM,.,.
COc1ccc(OC)c(-n2c(O)c(/C=C3\C=Nc4ccccc43)c(=O)[nH]c2=O)c1,.,.,?,/,.

# Compound activity: PubChem, National Center for Advancing Translational Sciences (NCATS)
